## AlphaSeq binding of Ab-14 light chain variants to a spike HR2 peptide

The measurements come from Li et al. 2023 (doi:10.1038/s41467-023-39022-2) through the FLAb antibody collection.

Target peptide (SARS-CoV-2 spike, HR2 region): PDVDLGDISGINAS

The variants keep the heavy chain, the linker and the frameworks of Ab-14 (scFv order VH, a 15-residue (Gly4Ser)3 linker, VL).
VH: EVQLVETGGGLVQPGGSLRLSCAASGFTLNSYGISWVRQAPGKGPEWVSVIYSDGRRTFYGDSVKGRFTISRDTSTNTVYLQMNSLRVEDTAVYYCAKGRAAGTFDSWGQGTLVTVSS
VL: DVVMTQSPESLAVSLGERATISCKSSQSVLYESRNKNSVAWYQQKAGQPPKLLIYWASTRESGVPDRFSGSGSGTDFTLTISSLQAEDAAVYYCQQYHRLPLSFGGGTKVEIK

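Phage display of a naive human antibody library on the peptide gave the parent. Designed CDR sequences, proposed from the first random library and measured here. Group labels follow the data file (Rand: our label for a block that the file lists under HC and that is probably the random mutants of the ten best first-round binders; En: ensemble of fine-tuned language models; GP: Gaussian process model; HC: hill climbing; Gen: genetic algorithm; Gibbs: Gibbs sampling; a sequence that several methods proposed may carry one label only). In AlphaSeq, yeast of one mating type display the scFv and yeast of the other type display the target. Pairs that bind mate more often; barcode pairs of the diploids are counted by sequencing. Read counts were normalised to the haploid input and turned into Kd by a linear fit to BCL2-family pairs of known affinity, for each replicate. The assay was run in six technical replicates.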

Sequences are complete VL domains. Variants here have more than six changes. The Kd shown is the geometric mean over detected replicates; a lower Kd is a better binder. Entries are sorted by rising average. Nonspecific signal, from three strains lacking the peptide, appeared in 4% of pairings of all light chain designs, centred on 430 nM (5% of these signals below 38 nM); values are not corrected for it.

With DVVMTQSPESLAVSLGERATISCKLSMSQEYESRNKNSVAWYQQKAGQPPKLLIYNASTRLTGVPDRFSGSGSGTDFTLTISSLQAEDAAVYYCQQYHRLPLSFGGGTKVEIK [GP_Gibbs] the result was 500 pM (6 of 6 replicates).
With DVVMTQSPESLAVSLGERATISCKVSQGMWYESRMKNSVAWYQQKAGQPPKLLIYNASQRESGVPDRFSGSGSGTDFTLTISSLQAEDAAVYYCQQYHRLPLQFGGGTKVEIK [GP_Gibbs] the result was 510 pM (6 of 6 replicates).
With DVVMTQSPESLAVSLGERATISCTVSQVEGMLSHNKNSVAWYQQKAGQPPKLLIYDMNTRGSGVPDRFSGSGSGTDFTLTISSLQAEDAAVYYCQQYDRLPLSFGGGTKVEIK [En_HC] the result was 1.8 nM (6 of 6 replicates).
With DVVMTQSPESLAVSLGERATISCKLQQSDLYESRNKNNVAWYQQKAGQPPKLLIYNASLREQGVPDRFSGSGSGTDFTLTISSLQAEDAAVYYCQQYHRLPLSFGGGTKVEIK [GP_Gibbs] the result was 1.9 nM (6 of 6 replicates).
With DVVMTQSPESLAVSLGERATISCKFSPSFLYWSRNSNAVAWYQQKAGQPPKLLIYEASTRESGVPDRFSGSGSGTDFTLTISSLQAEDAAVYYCQDYHRLPLSFGGGTKVEIK [GP_Gibbs] the result was 2.2 nM (6 of 6 replicates).
With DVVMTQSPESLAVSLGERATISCKLFQSNEYESRNDNSVAWYQQKAGQPPKLLIYNASQREWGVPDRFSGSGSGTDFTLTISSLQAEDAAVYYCQQYHRLPLSFGGGTKVEIK [GP_Gibbs] the result was 2.5 nM (6 of 6 replicates).
With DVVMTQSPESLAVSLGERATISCNLSIEMSHYYENRYSIAWYQQKAGQPPKLLIYDMTVREYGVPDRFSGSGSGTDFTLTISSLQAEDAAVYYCQHYSRIPLVFGGGTKVEIK [En_Gibbs] the result was 5.1 nM (6 of 6 replicates).
With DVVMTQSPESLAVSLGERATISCMIGEMLYQGAYKRNSVAWYQQKAGQPPKLLIYQANLREDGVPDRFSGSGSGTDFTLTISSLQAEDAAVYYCQHYHRLPLEFGGGTKVEIK [En_Gen] the result was 5.2 nM (6 of 6 replicates).
With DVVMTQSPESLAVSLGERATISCMFNMEVGIEDMKWNSVAWYQQKAGQPPKLLIYSADVRAFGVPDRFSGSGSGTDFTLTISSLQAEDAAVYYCQQYGRLPFSFGGGTKVEIK [En_Gibbs] the result was 8.4 nM (6 of 6 replicates).
With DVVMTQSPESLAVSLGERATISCKLSMLTEMSHVNRNSVAWYQQKAGQPPKLLIYELVTRMAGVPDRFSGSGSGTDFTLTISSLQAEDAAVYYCQQYNRLPLSFGGGTKVEIK [En_Gen] the result was 10 nM (6 of 6 replicates).
With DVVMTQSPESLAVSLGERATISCKISQSILFMSGMKNAIAWYQQKAGQPPKLLIYQMEMREEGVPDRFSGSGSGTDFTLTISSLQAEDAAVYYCQQYNRLPLSFGGGTKVEIK [En_HC] the result was 10 nM (6 of 6 replicates).
With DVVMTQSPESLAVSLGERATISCNLMSGMSELSVWSYSIAWYQQKAGQPPKLLIYSASIRGSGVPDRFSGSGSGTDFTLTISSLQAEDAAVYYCQQYFRLPLLFGGGTKVEIK [En_Gibbs] the result was 11 nM (5 of 6 replicates).
With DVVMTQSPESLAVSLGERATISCMIAHQPESINQRMNNVAWYQQKAGQPPKLLIYNGAEAVEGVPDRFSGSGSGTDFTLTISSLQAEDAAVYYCQQYDRLPLIFGGGTKVEIK [En_Gibbs] the result was 16 nM (6 of 6 replicates).
With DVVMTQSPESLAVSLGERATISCMITEGQLGENKNSSNIAWYQQKAGQPPKLLIYSQDQKTDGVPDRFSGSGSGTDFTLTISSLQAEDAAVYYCQQYQRLPLIFGGGTKVEIK [En_Gibbs] the result was 20 nM (6 of 6 replicates).
With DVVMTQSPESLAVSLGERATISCQLTHPSASWQANQASIAWYQQKAGQPPKLLIYDASLSLQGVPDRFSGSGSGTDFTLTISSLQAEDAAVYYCQQYAQLPLMFGGGTKVEIK [En_Gibbs] the result was 24 nM (4 of 6 replicates).
With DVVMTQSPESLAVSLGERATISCQLEQDQWPMGKGWHSIAWYQQKAGQPPKLLIYNATTLVAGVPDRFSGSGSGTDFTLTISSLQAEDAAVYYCQQYYYLPLSFGGGTKVEIK [En_Gibbs] the result was 25 nM (6 of 6 replicates).
With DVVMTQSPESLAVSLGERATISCNMNVGANFGKEQEQAIAWYQQKAGQPPKLLIYDVEDRESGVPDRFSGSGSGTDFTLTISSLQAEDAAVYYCQQYQRLPLTFGGGTKVEIK [En_Gibbs] the result was 55 nM (6 of 6 replicates).
With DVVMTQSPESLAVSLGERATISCTISQMTSLFSQSINNVAWYQQKAGQPPKLLIYEVSMREEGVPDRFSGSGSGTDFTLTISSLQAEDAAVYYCQQYDRLPLIFGGGTKVEIK [En_Gen] the result was 100 nM (6 of 6 replicates).
With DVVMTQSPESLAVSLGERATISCKLSTETYGLTGHTSSIAWYQQKAGQPPKLLIYHDEIRWAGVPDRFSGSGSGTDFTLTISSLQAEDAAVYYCQQYHKLPLIFGGGTKVEIK [En_Gibbs] the result was 140 nM (3 of 6 replicates).
With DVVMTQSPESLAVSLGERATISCMMTVGDDMNTGHQNSVAWYQQKAGQPPKLLIYHAEIKELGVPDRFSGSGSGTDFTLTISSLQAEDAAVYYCQQYFSLPLIFGGGTKVEIK [En_Gibbs] the result was 250 nM (5 of 6 replicates).
With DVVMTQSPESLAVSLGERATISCKFSDSVLLESRTKNRVAWYQQKAGQPPKLLIYNASTRESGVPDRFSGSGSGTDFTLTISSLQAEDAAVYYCQQYHRLGLSFGGGTKVEIK [Rand] the result was 530 nM (4 of 6 replicates).

Excerpt, the final 2 entries:

{"VL": "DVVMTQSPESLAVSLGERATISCMMTVGDDMNTGHQNSVAWYQQKAGQPPKLLIYHAEIKELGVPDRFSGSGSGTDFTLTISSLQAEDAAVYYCQQYFSLPLIFGGGTKVEIK", "group": "En_Gibbs", "Kd (apparent)": "250 nM", "seen in": "5/6"}
{"VL": "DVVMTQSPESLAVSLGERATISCKFSDSVLLESRTKNRVAWYQQKAGQPPKLLIYNASTRESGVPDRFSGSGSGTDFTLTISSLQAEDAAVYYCQQYHRLGLSFGGGTKVEIK", "group": "Rand", "Kd (apparent)": "530 nM", "seen in": "4/6"}

A sequence measured in both rounds can read differently, since the two assays cover different ranges. The authors' rule: three or more of the six replicates give a measured affinity, fewer mean a poor binder. Of ten entries with the parent sequence, four were seen in most replicates (averages 2.2 nM to 240 nM), three in one and three in none, so single entries are noisy.